Assay [1] has as its target T1, IKZF1Δ-CRBN complex formation (Homo sapiens, UniProt Q13422+Q96SW2, DEL197-239).
T1 construct: made in house; host or cells: Trichoplusia ni High-Five insect cells (baculovirus)
Description: CRBN-IKZF1Δ binding assay (TR-FRET). The settings on record: IKZF1Δ and DDB1ΔB-CRBN. (In general: Time-resolved FRET reads energy transfer from a long-lived donor to a nearby acceptor.)

Chains of the proteins cited; added tags and fusions are not shown. Lines headed by an entry give the natural chain unless they say otherwise; changes in a name come on top. A line that says so, or that is headed by a name, gives the form on record, which may keep a tag or linker.
UniProt Q13422, with tags, fused parts or gaps DEL197-239 limits assumed: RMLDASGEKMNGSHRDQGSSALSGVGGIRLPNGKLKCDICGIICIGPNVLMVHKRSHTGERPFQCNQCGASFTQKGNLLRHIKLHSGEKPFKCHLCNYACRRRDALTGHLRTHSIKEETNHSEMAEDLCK
UniProt Q96SW2, whole entry, stated change not applied: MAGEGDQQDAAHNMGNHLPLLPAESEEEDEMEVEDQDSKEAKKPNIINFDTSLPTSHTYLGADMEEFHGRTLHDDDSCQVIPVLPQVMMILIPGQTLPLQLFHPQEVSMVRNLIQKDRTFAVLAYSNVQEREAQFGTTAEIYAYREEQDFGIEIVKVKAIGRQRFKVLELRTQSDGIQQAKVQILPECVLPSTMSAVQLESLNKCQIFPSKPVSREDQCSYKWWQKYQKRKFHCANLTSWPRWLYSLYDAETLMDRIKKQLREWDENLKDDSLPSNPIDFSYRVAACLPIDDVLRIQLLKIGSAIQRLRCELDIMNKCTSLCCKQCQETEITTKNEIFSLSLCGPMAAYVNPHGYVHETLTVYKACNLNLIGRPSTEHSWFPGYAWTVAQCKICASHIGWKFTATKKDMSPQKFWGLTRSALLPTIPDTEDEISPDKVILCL

The target of assay [2] is IKZF1Δ-EGFP fusion protein (Homo sapiens, UniProt Q13422+Q96SW2, DEL197-239). Description: IKZF1Δ-EGFP fusion protein degradation reporter assay (flow cytometry). As to conditions: HEK293T cells. (In general: In a reporter assay the amount or activity of a reporter protein is the signal.)

The text below walks through data of patent publication US11505560B2, “Heterobifunctional compounds with improved specificity” (DANA-FARBER CANCER INSTITUTE, INC., priority 2017, dated 2022).

Molecules are shown by their SMILES.

Turning to `Cc1sc2c(c1C)C(c1ccc(Cl)cc1)=N[C@@H](CC(=O)NCCCCCCCCNC(=O)COc1cccc3c1C(=O)N(C1CCC(=O)NC1=O)C3=O)c1nnc(C)n1-2` (some centres unmarked) [dBET6, reference compound], the “induction of IKZF1-CRBN complex formation / IKZF1 binding (in words)” value in assay [1] is reported as “do not induce IKZF1-CRBN complex formation”. Besides, the “cellular IKZF1 degradation (in words)” value in assay [2] was “relatively ineffective at promoting IKZF1 degradation”.
